Test results reported in patent publication US20160016929A1, “PRO-DRUG COMPOUNDS” (PROXIMAGEN LIMITED, priority 2013, published 2016).

Test: Solubility in aqueous solutions (Table 3)
Details: pH 5.5

CC(=O)c1ccc2c(c1)[C@H](NC(=O)c1ccc(F)c(Cl)c1)[C@H](OC(=O)OC[C@H](N)C(=O)O)C(C)(C)O2.Cl [Example 5, (2S)-3-[({[(3S,4S)-6-Acetyl-4-[(3-chloro-4-fluorobenzene)amido]-2,2-dimethyl-3,4-dihydro-2H-1-benzopyran-3-yl]oxy}carbonyl)oxy]-2-aminopropanoic acid hydrochloride]
Solubility: 2 mg/mL (pH 5.5)
